Literature values in US11717549B2, “Steviol glycoside solubility enhancers” (CARGILL, INCORPORATED, priority 2017, dated 2023).

Settings: temperature 25 ° C.; cited from earlier work

O=C(O)Cc1cc(O)ccc1O [2,5-hydroxybenzeneacetic acid]
solubility (ppm): 3.15E+05 ppm
